The values that follow come from patent US20250155427A1, “CELLS […] TASTE RECEPTORS AND USES THEREOF” (Firmenich Incorporated, priority 2022, published 2025).

The target in the experiment is T1, human T1R1, a rat-human T1R3 chimera, and the promiscuous G-protein G16gust25 (UniProt Q7RTX1+Q923K1, A568E/A645S/A698V/A702T/A793V/A807V/C582S/C678S/E725V/E827G/F612A/F622V/F805L/I617V/I740A/I779T/I803L/K818R/L735F/L823M/L825Q/M644L/M706V/M729T/N675D/Q717H/Q757R/Q795R/Q831P/R632Q/R634S/S576L/S610P/S635P/S637R/S679G/T588V/T694M/T813A/V584A/V718M/V723A/V738A/V744T/V821L/W599R/W676R/W824R/Y598H/Y680C/Y794L).
T1 sequence (Q7RTX1 21-841): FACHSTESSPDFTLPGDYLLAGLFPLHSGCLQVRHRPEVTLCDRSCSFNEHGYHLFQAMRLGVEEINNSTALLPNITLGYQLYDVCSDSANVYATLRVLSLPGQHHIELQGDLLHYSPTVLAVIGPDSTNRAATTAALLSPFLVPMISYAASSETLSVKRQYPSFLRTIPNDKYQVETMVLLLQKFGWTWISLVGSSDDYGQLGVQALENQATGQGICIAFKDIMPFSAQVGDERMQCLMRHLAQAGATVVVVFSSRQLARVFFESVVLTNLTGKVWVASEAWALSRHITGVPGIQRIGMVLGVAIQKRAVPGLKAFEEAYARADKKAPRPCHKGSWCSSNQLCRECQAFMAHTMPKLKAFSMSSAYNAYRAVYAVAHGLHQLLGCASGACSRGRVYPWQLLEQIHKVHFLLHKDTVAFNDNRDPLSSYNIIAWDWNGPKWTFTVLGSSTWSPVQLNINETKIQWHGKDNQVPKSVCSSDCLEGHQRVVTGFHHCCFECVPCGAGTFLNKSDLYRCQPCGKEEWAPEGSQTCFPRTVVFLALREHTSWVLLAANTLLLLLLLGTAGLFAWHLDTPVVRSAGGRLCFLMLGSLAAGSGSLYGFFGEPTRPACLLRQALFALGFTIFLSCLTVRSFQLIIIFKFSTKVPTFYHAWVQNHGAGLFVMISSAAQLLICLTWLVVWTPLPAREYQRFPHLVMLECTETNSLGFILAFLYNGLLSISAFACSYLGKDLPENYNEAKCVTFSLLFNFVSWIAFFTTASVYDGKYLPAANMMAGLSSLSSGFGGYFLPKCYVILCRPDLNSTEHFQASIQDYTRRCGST
T1 sequence (Q923K1 with tags, fused parts or gaps A568E/S576L/C582S/V584A/T588V/Y598H/W599R/S610P/F612A/I617V/F622V/R632Q/R634S/S635P/S637R/M644L/A645S/N675D/W676R/C678S/S679G/Y680C/T694M/A698V/A702T/M706V/Q717H/V718M/V723A/E725V/M729T/L735F/V738A/I740A/V744T/Q757R/I779T/A793V/Y794L/Q795R/I803L/F805L/A807V/T813A/K818R/V821L/L823M/W824R/L825Q/E827G/Q831P limits assumed): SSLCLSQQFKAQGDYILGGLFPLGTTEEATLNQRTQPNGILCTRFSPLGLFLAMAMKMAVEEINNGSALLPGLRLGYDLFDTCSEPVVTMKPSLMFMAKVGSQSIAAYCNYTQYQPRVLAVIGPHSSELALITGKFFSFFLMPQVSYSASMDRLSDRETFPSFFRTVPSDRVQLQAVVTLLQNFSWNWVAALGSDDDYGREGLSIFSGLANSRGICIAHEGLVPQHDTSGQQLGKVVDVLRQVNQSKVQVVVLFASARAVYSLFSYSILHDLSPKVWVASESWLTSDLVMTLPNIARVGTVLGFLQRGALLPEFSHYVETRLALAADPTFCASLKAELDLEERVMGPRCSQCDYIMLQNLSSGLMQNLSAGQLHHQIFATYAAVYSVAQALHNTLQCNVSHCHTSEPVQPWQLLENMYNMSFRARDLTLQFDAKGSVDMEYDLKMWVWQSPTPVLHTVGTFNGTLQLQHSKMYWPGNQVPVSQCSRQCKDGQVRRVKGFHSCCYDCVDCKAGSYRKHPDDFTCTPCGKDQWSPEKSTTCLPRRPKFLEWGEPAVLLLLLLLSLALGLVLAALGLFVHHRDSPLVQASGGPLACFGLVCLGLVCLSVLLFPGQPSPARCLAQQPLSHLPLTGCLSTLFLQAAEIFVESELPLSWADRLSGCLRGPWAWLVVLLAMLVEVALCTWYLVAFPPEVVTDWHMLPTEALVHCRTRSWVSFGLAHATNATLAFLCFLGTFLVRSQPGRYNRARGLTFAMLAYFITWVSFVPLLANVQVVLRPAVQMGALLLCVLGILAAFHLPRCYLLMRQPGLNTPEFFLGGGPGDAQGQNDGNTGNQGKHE
Particulars: MSG with cyclamate added at 8 mM, FIG. 4A.

In the case of `O=S(=O)(O)NC1CCCCC1` [cyclamate], the “concentration of MSG necessary to reach the EC50 threshold” value is recorded as “reduced”.
